Values of other authors in patent publication US9752110B2, “Method and compositions of preserving wine” (YSDR, LLC, priority 2008, dated 2017).

Tested on: eNOS
Conditions: cited from earlier work

COc1cc(-c2[o+]c3cc(O)cc(O)c3cc2O)ccc1O [paeodnidin]
eNOS expression or eNOS promoter activity: did not change
